PubChem BioAssay AID602428 (Sanford-Burnham Center for Chemical Genomics, 2012)
The entries are a selection whose mix differs from that of the whole data set. Calls of active or inactive are those of the source.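 The calls were made as follows: active = mean inhibition at 5 µM reaching about 45% (limit read from the data); inactive = the rest.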

Experiment: blockers of Gli reporter signaling – single concentration, luciferase luminescence, Sufu-KO-LIGHT cells, confirmation (AID 602428);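 also: plate controls were DMSO-treated cells for no effect and wells lacking cells for full effect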
Settings: at 5 µM, hits give high values
In the case of `CC1=C2N=C(C=C3N=C(C(C)=C4[N-][C@@](C)([C@@H]5N=C1[C@](C)(CCC(=O)NC[C@@H](C)OP(=O)([O-])O[C@H]1[C@@H](O)[C@@H](n6cnc7cc(C)c(C)cc76)O[C@@H]1CO)[C@H]5CC(N)=O)[C@@](C)(CC(N)=O)[C@@H]4CCC(N)=O)[C@@](C)(CC(N)=O)[C@@H]3CCC(N)=O)C(C)(C)[C@@H]2CCC(N)=O.[C-]#N.[Co+3]`, the inhibition is reported as inactive: 42.6%.
